Earlier results on one compound are cited in patent US11279711B2, “Condensed heterocyclic derivates as BCL-2 inhibitors for the treatment of neoplastic diseases” (Newave Pharmaceutical Inc., priority 2017, dated 2022).

By UniProt entry, the sequences of proteins in these tests, tags left out.
UniProt P10415, whole entry: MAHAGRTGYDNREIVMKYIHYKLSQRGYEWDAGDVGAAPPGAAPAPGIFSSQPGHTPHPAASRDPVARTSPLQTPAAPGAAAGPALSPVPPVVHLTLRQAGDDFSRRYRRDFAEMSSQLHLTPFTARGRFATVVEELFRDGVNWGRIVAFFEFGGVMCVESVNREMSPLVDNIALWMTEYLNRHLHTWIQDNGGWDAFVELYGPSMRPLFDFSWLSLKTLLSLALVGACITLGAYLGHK

Molecules are shown by their SMILES.

The data set addresses Bcl-2 (Homo sapiens, UniProt P10415). The conditions noted are these: cited from earlier work.

For the compound `CC1(C)CCC(c2ccc(Cl)cc2)=C(CN2CCN(c3ccc(C(=O)NS(=O)(=O)c4ccc(N[C@H](CCN5CCOCC5)CSc5ccccc5)c(S(=O)(=O)C(F)(F)F)c4)cc3)CC2)C1` [ABT-263], the Ki was no more than 1 nM.
